# Apparent affinities of Ab-14 variants for a coronavirus HR2 peptide

The measurements come from Li et al. 2023 (doi:10.1038/s41467-023-39022-2) through the FLAb antibody collection.

The target is the same throughout: PDVDLGDISGINAS, from the HR2 region of SARS-CoV-2 spike.

The variants keep the heavy chain, the linker and the frameworks of Ab-14 (scFv order VH, the linker GGGGSGGGGSGGGGS, VL).
VH: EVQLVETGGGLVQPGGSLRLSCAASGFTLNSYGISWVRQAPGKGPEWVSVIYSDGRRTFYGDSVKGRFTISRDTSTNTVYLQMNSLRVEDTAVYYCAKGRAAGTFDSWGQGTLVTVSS
VL: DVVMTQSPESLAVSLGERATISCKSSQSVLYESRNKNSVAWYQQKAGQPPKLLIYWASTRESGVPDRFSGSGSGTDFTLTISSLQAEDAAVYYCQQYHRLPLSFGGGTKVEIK

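Phage display of a naive human antibody library on the peptide gave the parent. The variants were designed computationally from a first round of random CDR variants and then made and measured. Their group label is 14L_GP_Gibbs (GP: Gaussian process model; Gibbs: Gibbs sampling; a sequence that several methods proposed may carry one label only). In AlphaSeq, yeast of one mating type display the scFv and yeast of the other type display the target. Binding brings cells together so that they mate, and sequencing counts the barcode pairs among the diploids. Scores were corrected for input abundance and mapped to Kd with protein pairs of known affinity run in the same pool. The assay was run in six technical replicates.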

The parent's light chain CDRs are KSSQSVLYESRNKNSVA, WASTRES, QQYHRLPLS; each variant's own CDRs replace them letter for letter.
Scale: log10 of Kd in nM, estimated from mating counts; low values are strong binders.
An entry "ND" has no value in the source: the pair was not observed among the diploids in that replicate. This suggests poor binding but is not conclusive.

CDR-L1	CDR-L2	CDR-L3	replicates, log10 nM	control signals
KLSQSDGYQARNSNSVA	HASQRED	QQYHRLPLS	-0.02 -0.27 -0.23 -0.12 -0.33 -0.13	0/18
IIPQSWLGEWRNKNSVA	NASQRES	QQYHRLPLS	-0.02 0.13 -0.15 0.02 -0.13 0.25	3/18 (2.05)
KQQFSVLMESRQCNSVA	EASTREE	QQYHRLPLS	1.38 1.57 1.06 1.19 0.81 1.45	2/18 (2.22)
KMSQEAMMLSRNQNSVA	EASTREQ	QQYHRLPLS	0.68 0.61 0.14 -0.07 0.49 0.72	0/18
KLSFLKGGESRNKNSVA	DAGTRES	QQYHRLPLS	0.06 -0.22 -0.44 -0.36 -0.51 -0.11	1/18 (2.22)
KMSQSVLYESQNSNSVA	HASQRMS	QQYHRLPLS	-0.02 -0.24 -0.08 -0.53 -0.01 0.35	1/18 (2.51)
KLSPSEQYEDRNCNAVA	QASQRES	QQYHRLPLS	-0.01 0.35 0.28 -0.01 0.26 0.45	0/18
KLEFLHLYESRNKNSVA	EASTRES	QQYHRLPLS	0.05 -0.09 -0.37 -0.18 -0.18 0.01	4/18 (2.83)
KVSWSWLLESRVWNSVA	NASLRES	QQYHRLPLS	0.79 0.51 0.40 0.30 0.42 0.66	2/18 (2.49)
KISQSQLGESRNVNSVA	NASTRES	QQYHRLPLS	-0.42 -0.42 -0.37 -0.52 -0.48 -0.49	0/18
KLSMQDEYQSRNKNSVA	NASTRYS	QQYHRLPLS	0.00 -0.19 -0.31 -0.32 -0.28 -0.22	1/18 (2.49)
KLSQAVWYESRNKNSVA	EASLREQ	QQYHRLPLS	0.51 0.71 0.51 0.56 0.61 0.89	2/18 (2.28)
KQQSSVMMGSRNKNSVA	SASKRES	QQYHRLPLS	0.78 0.84 0.50 0.78 1.01 1.00	1/18 (3.52)
KVEQSNPYESRNANSVA	NASQRLS	QQYHRLPLS	1.35 1.67 1.60 2.14 0.91 2.31	4/18 (2.50)
KYEQQELTEQRNKNSVA	NASTRES	QQYHQLPLS	0.26 0.88 0.07 0.36 0.31 0.38	0/18
HFQQSVPYESRNFNSVA	NASLRFS	QQYHRLPLS	1.25 1.49 1.57 1.30 1.52 1.59	5/18 (3.45)
KWRQSVDGESRNKNSVA	QASQREQ	QQYHRLPLS	0.34 0.21 -0.01 0.42 0.13 0.13	1/18 (2.71)
KHEEGVEYESRNKNSVA	NASTRLS	QQYHRLPLS	0.65 0.71 0.57 0.70 0.34 1.88	0/18
KVDFLGDYESRNKNSVA	SASTRES	QQYHRLPLS	0.38 0.24 0.14 0.07 0.22 0.41	0/18
KLQPSWLYEERNDNSVA	NASQRES	QDYHRLPLS	0.62 0.79 0.45 0.61 0.61 1.55	2/18 (2.33)
KVSQLGLYGSRNKNSVA	EASTRES	QQYHRLPLD	1.10 0.91 0.66 0.46 1.11 0.85	3/18 (3.00)
KLQQSELYMDRNANNVA	NASTRMS	QQYHRLPLS	-0.31 -0.41 -0.45 -0.62 -0.44 -0.38	2/18 (2.73)
KLEWSQLYESRNCNSVA	NASTRES	QQYWRLPLS	0.59 0.55 0.66 0.56 0.77 0.78	3/18 (3.36)
KLQQSELYESRNTNSVA	GASTRCE	QQYHRLPLS	1.08 0.72 0.75 0.72 1.12 1.43	0/18
KLSQSFMYEERNPNSVA	NASKRES	QQYHRLPLS	-0.29 -0.12 -0.30 -0.41 -0.11 -0.23	0/18
HLSQSVQQESRNKNSVA	EASQRER	QQYHRLPLS	2.14 1.40 1.55 1.23 1.69 1.24	0/18
KLSQSVEYESRNKNSVA	DAQTRQS	QQYHRLPLS	0.60 0.32 0.35 0.33 -0.05 0.23	0/18
KLSQSVLYESRVKNSVA	EAVTRES	QQYHRLPLS	0.42 0.01 1.09 0.48 0.58 -0.04	0/18
KLEQSNDYEDRNANNVA	NASQRES	QQYHRLPLS	0.28 0.24 -0.13 0.04 0.29 0.41	0/18
KVDQEWDYGSRNKNSVA	NASQRER	QQYHRLPLS	-0.06 -0.22 -0.25 -0.30 -0.26 0.01	1/18 (3.00)
KWSCSQLYDSQNKNSVA	WASTREM	QQYHRLPLS	0.83 1.28 ND ND 0.86 2.15	0/18
KVQQSWLYESRNSNNVA	NASKRES	QQYHRLPLS	0.40 0.12 -0.01 0.09 0.05 0.05	3/18 (2.10)
KFFQSGLDDMRNDNSVA	SASTRLS	QQYHRLPLS	0.34 0.51 -0.10 0.22 0.05 0.21	1/18 (2.20)

The closing 4 entries, repeated:

{"CDR-L1": "KVDQEWDYGSRNKNSVA", "CDR-L2": "NASQRER", "CDR-L3": "QQYHRLPLS", "replicates, log10 nM": "-0.06 -0.22 -0.25 -0.30 -0.26 0.01", "control signals": "1/18 (3.00)"}
{"CDR-L1": "KWSCSQLYDSQNKNSVA", "CDR-L2": "WASTREM", "CDR-L3": "QQYHRLPLS", "replicates, log10 nM": "0.83 1.28 ND ND 0.86 2.15", "control signals": "0/18"}
{"CDR-L1": "KVQQSWLYESRNSNNVA", "CDR-L2": "NASKRES", "CDR-L3": "QQYHRLPLS", "replicates, log10 nM": "0.40 0.12 -0.01 0.09 0.05 0.05", "control signals": "3/18 (2.10)"}
{"CDR-L1": "KFFQSGLDDMRNDNSVA", "CDR-L2": "SASTRLS", "CDR-L3": "QQYHRLPLS", "replicates, log10 nM": "0.34 0.51 -0.10 0.22 0.05 0.21", "control signals": "1/18 (2.20)"}

A sequence measured in both rounds can read differently, since the two assays cover different ranges.
As a blank, each scFv also met three strains without target: over all light chain designs, 4% of these pairings were detected, typically at 2.64 and seldom below 1.59. The control count says in how many pairings with the empty strains this scFv gave a signal, with their mean in brackets.
In the paper, a design with two or fewer of six values counts as a poor binder.